Earlier results as cited in patent US8765060B2, “Chemical sensor” (Regents of the University of Minnesota, priority 2005, dated 2014).

Details: reported salts of 2; cited from earlier work

## FC(F)(F)C(F)(F)C(F)(F)C(F)(F)C(F)(F)C(F)(F)c1cc([B-](c2cc(C(F)(F)C(F)(F)C(F)(F)C(F)(F)C(F)(F)C(F)(F)F)cc(C(F)(F)C(F)(F)C(F)(F)C(F)(F)C(F)(F)C(F)(F)F)c2)(c2cc(C(F)(F)C(F)(F)C(F)(F)C(F)(F)C(F)(F)C(F)(F)F)cc(C(F)(F)C(F)(F)C(F)(F)C(F)(F)C(F)(F)C(F)(F)F)c2)c2cc(C(F)(F)C(F)(F)C(F)(F)C(F)(F)C(F)(F)C(F)(F)F)cc(C(F)(F)C(F)(F)C(F)(F)C(F)(F)C(F)(F)C(F)(F)F)c2)cc(C(F)(F)C(F)(F)C(F)(F)C(F)(F)C(F)(F)C(F)(F)F)c1.[Na+] [compound 2]
  solubility in perfluoro(butyltetrahydrofuran): soluble
